According to patent US20170151343A1 (AbbVie / Abbott, published 2017):

Biological target: T1, mouse LRRC15, expressed on murine Balb/c BM-MSC cells (mouse, UniProt Q80X72 22-579)
T1 construct: whole, on cells; also called muLRRC15
Experiment: flow cytometry histograms on murine Balb/c BM-MSC (Cyagen), without or with TGFbeta, AF647-labeled antibody

B1: huM25 (antibody, human IgG1, kappa)
heavy: not shown
light: DIQMTQSPSSLSASVGDRVTITCRASQDISNYLNWYQQKPGGAVKFLIYYTSRLHSGVPSRFSGSGSGTDYTLTISSLQPEDFATYFCQQGEALPWTFGGGTKVEIKRTVAAPSVFIFPPSDEQLKSGTASVVCLLNNFYPREAKVQWKVDNALQSGNSQESVTEQDSKDSTYSLSSTLTLSKADYEKHKVYACEVTHQGLSSPVTKSFNRGEC
notes: Humanized IgG1 kappa; also called AF647-labeled huM25; huM25-AF647
  binding result: binds
